These results are taken from article PMC6160342.

For this experiment, the target named is biotin-labeled SUMO-fusion ST SseC-SscA (S. Typhimurium) (UniProt O84947). The experiment can be described thus: SPR. Background: Surface plasmon resonance follows binding to a sensor surface in real time, without labels.

pKd: −log10 of the molar value.

What is called pKd is −log10 of the Kd, conventionally taken in molar units. Turning to “VPS35/VPS26A subcomplex (from UniProt Q96QK1 1-796; O75436 1-327)”, the pKd is 6.42.
